Source: PMC6062497 (2018)
Values joined by “and” are separate entries in the source; they are usually repeats but may differ in a detail not shown here. Equal entries are not always repeated.

Target: TRAIL-R2 (human (endogenous in SK-Mel-3 and …, UniProt O14763 56-440))

Kd: 5.53 nM and 4.86 nM
B1: GpL-FLAG-conatumumab (antibody, V domains shown)
VH: QVQLQESGPGLVKPSQTLSLTCTVSGGSISSGDYFWSWIRQLPGKGLEWIGHIHNSGTTYYNPSLKSRVTISVDTSKKQFSLRLSSVTAADTAVYYCARDRGGDYYYGMDVWGQGTTVTVSS
VL: EIVLTQSPGTLSLSPGERATLSCRASQGISRSYLAWYQQKPGQAPSLLIYGASSRATGIPDRFSGSGSGTDFTLTISRLEPEDFAVYYCQQFGSSPWTFGQGTKVEIK
